Laboratory results as given in patent US8455552B2, “Composition comprising S-allylmercapto-N-acetylcysteine (ASSNAC) for up-regulation of cellular glutathione level” (RAMOT et Tel Aviv University Ltd., priority 2007, dated 2013).

Test system: human neuroblastomas SH-SY5Y cell line
Assay: Protection of SH-SY5Y cultures against tBuOOH cytotoxicity (neutral red)
Conditions: tBuOOH 1 mM 3 hours, no pretreatment

CC(C)(C)OO
cytotoxicity of tBuOOH alone: 85%
